Patent US6660768B2, “Parasiticidal compositions and methods of use” (Schering-Plough Animal Health Corporation, priority 2001, dated 2003)

Key:
[1] = Example 3A: relative solubility of permethrin in neat solvents, seeded solutions in cold bath, supernatant assayed
Experimental: These solutions were poured into 100 mL tubes with screw top caps. These tubes were placed in the cold water bath and allowed to come to equilibrium at the temperature of the bath. […] The seeded preparations were then thoroughly shaken, replaced in the bath and allowed to remain in the bath for a 24 hour period. The preparations were then examined for crystallization, then again thoroughly agitated and replaced in the bath for an additional time period. Samples of the supernatant were removed after additional crystallization had occurred.
After 24 hours the tubes were examined for the relative amount of crystallization that may have occurred in each of the solutions. Where crystallization had occurred, samples of the supernatant were pulled from the vials and the temperature of the bath was lowered to 15° C.
Samples were again taken for assay from the solutions of hexylene glycol and methyl Carbitol® (diethylene glycol monomethyl ether).

[2] = Example 3D: solubility of permethrin in propylene glycol monomethyl ether at 20° C. after crystallization at 0° C.; format: physicochemical
Experimental: The purpose of this study was to determine the solubility of permethrin at 20° C. A 70% solution permethrin in propylene glycol monomethyl ether was prepared. The technical permethrin and original 70% solution were sampled for determination of permethrin concentration and the trans/cis ratio. The solution was placed in the bath, and continually stirred. The bath temperature was lowered to 0° C. After crystallization occurred in the solution, the bath temperature setting was raised to 20° C. and the stirred slurry was allowed to equilibrate over a three-day period. After this time, samples of the supernatant were pulled on consecutive days. The crystals were separated from the liquid layer by filtration, and the crystals were washed with petroleum ether. All resulting samples, of both supernatant and crystals, were analyzed for both total permethrin content and the trans/cis isomer ratio. The crystals were washed to remove any residual solution that might contaminant their analysis.
However, as with all solutions of permethrin that have been observed, the cis isomer will crystallize and precipitate from solution if the temperature is low enough.

[3] = Example 3C: solubility of 30% permethrin in d-limonene/propylene glycol monomethyl ether mixtures at -15° C.; format: physicochemical; settings: initial 30% permethrin
Experimental: A third study was initiated to determine if there would be increased solubility of lower concentrations of permethrin in the solvent mixtures.
The temperature was regulated to −15° C. The solutions were placed in the bath and allowed to crystallize and reach equilibrium. The supernatant solution was sampled and analyzed to determine the concentration of permethrin and isomer ratio.

[4] = Dipropylene Glycol Monomethyl Ether, 15° C.
[5] = Propylene Glycol Monomethyl Ether, 15° C.

CC1(C)C(C=C(Cl)Cl)C1C(=O)OCc1cccc(Oc2ccccc2)c1 (stereo not shown) [permethrin]
Comments (crystallization) ([1]; Diethylene Glycol Monomethyl Ether, 15° C.): 15 °C it became solid. The | Trans/Cis Ratio ([1]; Diethylene Glycol Monomethyl Ether, 17.5° C.): 1.59 | Trans/Cis Ratio ([1]; Diethylene Glycol Monomethyl Ether, 20° C.): 1.40 | Trans/Cis Ratio ([1]; Diethylene Glycol Monomethyl Ether, 25° C.): 1.39 | Comments (crystallization) ([1]; Diethylene Glycol Monomethyl Ether, 25° C., 70% permethrin): No crystallization occurred at | Comments (crystallization) ([1]; Diethylene Glycol Monomethyl Ether, 25° C., 75% permethrin, after second addition of permethrin crystals): at 25 °C Crystals remained in the | Trans/Cis Ratio ([1]; Diethylene Glycol Monomethyl Ether, Initial): 1.42 | Comments (crystallization) ([1]; Diethylene Glycol Monomethyl Ether, crystallization at 20° C.): The solution showed quite a bit of | Comments (crystallization) ([1]; Diethylene Glycol Monomethyl Ether, held at 17.5° C. for 24 hours): product was mostly solid. No | Comments (crystallization) [1, 4]: The product became solid at | Trans/Cis Ratio [1, 4]: 1.46 | Trans/Cis Ratio ([1]; Dipropylene Glycol Monomethyl Ether, 20° C.): 1.38 | Trans/Cis Ratio ([1]; Dipropylene Glycol Monomethyl Ether, 25° C.): 1.38 | Comments (crystallization) ([1]; Dipropylene Glycol Monomethyl Ether, 25° C., 70% permethrin): No crystallization occurred at | Comments (crystallization) ([1]; Dipropylene Glycol Monomethyl Ether, 25° C., 75% permethrin, after second addition of permethrin crystals): at 25 °C Crystals remained in the | Trans/Cis Ratio ([1]; Dipropylene Glycol Monomethyl Ether, Initial): 1.39 | Comments (crystallization) ([1]; Hexylene Glycol, 15° C.): product was solid at 15 °C | Comments (crystallization) ([1]; Hexylene Glycol, 17.5° C.): mostly solid at 17.5 °C The | Trans/Cis Ratio ([1]; Hexylene Glycol, 17.5° C.): 1.87 | Comments (crystallization) ([1]; Hexylene Glycol, 20°, solution completely): solidified at 20°. Samples were | Trans/Cis Ratio ([1]; Hexylene Glycol, 25° C.): 1.39 | Comments (crystallization) ([1]; Hexylene Glycol, 25° C., 70% permethrin): No crystallization occurred at | Comments (crystallization) ([1]; Hexylene Glycol, 25°, 75% permethrin, after second addition of permethrin crystals): at 25 °C Crystals remained in the | Trans/Cis Ratio ([1]; Hexylene Glycol, Initial): 1.39 | Comments (crystallization) [1, 5]: product was mostly solid at 15° C., | Trans/Cis Ratio [1, 5]: 1.39 | Trans/Cis Ratio ([1]; Propylene Glycol Monomethyl Ether, 20° C.): 1.41 | Trans/Cis Ratio ([1]; Propylene Glycol Monomethyl Ether, 25° C.): 1.38 | Comments (crystallization) ([1]; Propylene Glycol Monomethyl Ether, 25° C., 70% permethrin): No crystallization occurred at | Trans/Cis Ratio ([1]; Propylene Glycol Monomethyl Ether, Initial): 1.40 | Comments (crystallization): crystals ([1]; Propylene Glycol Monomethyl Ether, the lower temperature (20° C.), 75% permethrin, seeded): remained in the solution. The | Comments (crystallization) ([1]; d-limonene, 15° C., 75% permethrin, seeded): crystals remained in the solution. | Trans/Cis Ratio ([1]; d-limonene, 20° C.): 1.38 | Trans/Cis Ratio ([1]; d-limonene, 25° C.): 1.39 | Comments (crystallization) ([1]; d-limonene, 25° C., 70% permethrin): No crystallization occurred at | Trans/Cis Ratio ([1]; d-limonene, Initial): 1.38 | Isomer Ratio Trans/Cis ([2]; Assay of Crystals (filtered, washed)): 0 | Isomer Ratio Trans/Cis ([2]; Initial Assay of 70% Solution in propylene glycol monomethyl ether): 1.34 | Isomer Ratio Trans/Cis ([2]; supernatant, propylene glycol monomethyl ether, 20° C., 2nd Day after Equilibrium Reached): 1.41 | Isomer Ratio Trans/Cis ([2]; supernatant, propylene glycol monomethyl ether, 20° C., Assay after Equilibrium Reached): 1.41 | Isomer Ratio Trans/Cis ([3]; 0% d-limonene in formula): 2.83 | Isomer Ratio Trans/Cis ([3]; 20% d-limonene in formula): 2.33 | Isomer Ratio Trans/Cis ([3]; 33% d-limonene in formula): 2.05 | Isomer Ratio Trans/Cis ([3]; 50% d-limonene in formula): 1.75 | Isomer Ratio Trans/Cis ([3]; 67% d-limonene in formula): 1.66 | Isomer Ratio Trans/Cis ([3]; 100% d-limonene in formula): 2.05
